# The list shows a part of the results, in another mix than the full data. Some tests of the compounds listed are not included; inactive here does not mean inactive elsewhere. Active and inactive are the calls of the source. Rule as the data show it: active = inhibition above about 30%; inactive = the rest.
# Assay: phenotypic screen on post-Golgi transport, primary screen (AID 739);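 also: yeast cells grown in 1536-well plates; yeast grown about 18 h at 30C before absorbance read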
# Settings: post-Golgi transport phenotypic cell assay; at 10 µM; hits give high values
row,Compound,inhibition
1,CN(C)c1cccc(C(=O)NCC2(N(C)C)CCCCC2)c1,inactive: -3.26%
2,O=C(OC1CN2CCC1CC2)C(CO)(c1ccccc1)c1ccccc1 (stereo not drawn),inactive: -0.46%
3,CC(C)N1C(=O)CC2(CCN(CCOC(=O)C(O)(c3ccccc3)c3ccccc3)CC2)C1=O,inactive: -2%

# Source: PubChem BioAssay AID739 (SRMLSC, 2007)
